Source: US20050202403A1

Chains of the proteins cited; added tags and fusions are not shown. Lines headed by an entry give the natural chain unless they say otherwise; changes in a name come on top.
UniProt P41146: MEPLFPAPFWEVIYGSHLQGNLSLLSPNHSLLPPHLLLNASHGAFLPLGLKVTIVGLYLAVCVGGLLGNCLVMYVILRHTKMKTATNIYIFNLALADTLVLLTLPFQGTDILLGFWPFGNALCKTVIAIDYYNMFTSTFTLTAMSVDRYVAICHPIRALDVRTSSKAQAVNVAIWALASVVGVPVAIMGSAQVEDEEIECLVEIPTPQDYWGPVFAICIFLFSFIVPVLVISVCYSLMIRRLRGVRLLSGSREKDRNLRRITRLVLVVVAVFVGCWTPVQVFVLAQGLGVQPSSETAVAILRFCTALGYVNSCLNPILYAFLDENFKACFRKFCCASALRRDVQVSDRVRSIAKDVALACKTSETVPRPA
UniProt Q13519: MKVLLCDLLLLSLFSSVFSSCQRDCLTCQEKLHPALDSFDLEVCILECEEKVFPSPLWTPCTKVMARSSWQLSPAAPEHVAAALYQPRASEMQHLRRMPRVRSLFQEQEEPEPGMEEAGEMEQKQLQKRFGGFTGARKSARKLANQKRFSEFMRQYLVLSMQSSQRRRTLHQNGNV

Target: human nociceptin receptor expressed as a fusion to the α-factor leader (human) (UniProt P41146)
Test: cell-based or functional assay

β-galactosidase expression, strain CY2120 with Gpal: 10 fold
Substance: nociceptin (from UniProt Q13519 130-146) (peptide)
